Sequences of proteins named here, by UniProt entry; tags and fusion partners are left off.
UniProt Q9Y5N1, whole entry: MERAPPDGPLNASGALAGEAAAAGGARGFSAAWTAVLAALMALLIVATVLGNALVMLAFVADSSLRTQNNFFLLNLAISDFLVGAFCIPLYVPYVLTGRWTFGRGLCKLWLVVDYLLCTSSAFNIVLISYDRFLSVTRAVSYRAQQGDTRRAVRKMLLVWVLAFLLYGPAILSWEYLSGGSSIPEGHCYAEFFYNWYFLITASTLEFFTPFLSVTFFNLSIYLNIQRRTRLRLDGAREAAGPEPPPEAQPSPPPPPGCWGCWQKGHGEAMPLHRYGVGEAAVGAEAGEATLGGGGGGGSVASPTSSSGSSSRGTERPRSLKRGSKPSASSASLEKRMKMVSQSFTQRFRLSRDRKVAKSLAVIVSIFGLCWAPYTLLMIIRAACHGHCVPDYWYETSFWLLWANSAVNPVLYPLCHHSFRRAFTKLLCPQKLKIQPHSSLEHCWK

In patent US20110124626A1, “BENZAZEPINE DERIVATIVES AND THEIR USE AS HISTAMINE H3 ANTAGONISTS” (TAKEDA PHARMACEUTICAL COMPANY LIMITED, priority 2008, published 2011):

Experiments:
[1] = target: T1, human H3 receptor (Homo sapiens, UniProt Q9Y5N1); experiment: In vitro H3 binding assay (3H-N-α-methyl-histamine competition binding); conditions: read-out: hH3 binding IC50; membranes of CHO-K1 cells expressing human H3 receptor; 2 nM 3H-NαMH
Experimental: The ability of compounds to bind to the H3 receptor was determined by measuring the reduction in tritiated N-α-methyl-histamine (^3H—NαMH) binding in a competition binding assay. Changes in the levels of bound radio-label were monitored by scintillation counting with a Trilux Microbeta (Perkin Elmer).
Membranes were prepared from CHO-K1 cells stably expressing human H3 receptor; routinely grown as monolayers in Ham's F12 medium (Invitrogen) supplemented with 10% Foetal Clone 111 (Hyclone), 500 μg/ml G418 (Invitrogen), 5 μg/ml blasticidine S (Invivogen) and […] Gentamicin (Sigma) in 5% CO2 at 37° C. […] Membranes were suspended in homogenisation buffer, protein concentration was determined (BCA Protein Assay kit (Pierce)), diluted to 2.2 mg/ml, dispensed into 1 ml aliquots and stored at −80° C.
Membranes were thawed on ice, sonicated with 4 cycles of 20 pulses (50% amplitude, 0.5 pulse) (UP200S Hielscher) on ice, diluted in assay buffer (50 mM Tris-HCl (pH7.4), 5 mM MgCl2) to 62.5 μg/ml. […] Total binding was determined in the presence of 1% DMSO and non-specific binding was determined by the inclusion of 1 μM R-α-methyl-histamine (RαMH). […] Filtermats were dried at 42° C. for two hours, scintillant added and the level of bound radioactivity determined. […]

[2] = target: T1, human H3 receptor; experiment: In vitro H3 functional assay (cAMP response element driven luciferase reporter); conditions: read-out: hH3 functional IC50; CHO(dhfr+)-cre-luc cells expressing human H3 receptor; RαMH 10 nM, forskolin 1 μM
Experimental: The functional activity of compounds at the H3 receptor was determined by measuring changes in the level of intracellular cAMP using a cAMP response element driven luciferase reporter assay. The changes in luciferase expression were monitored by a luminescence plate reader, Analyst HT (MDS Analytical). Increases in intracellular cAMP were readily detected upon activation of protein kinase A by forskolin (Sigma) and suppression of this response observed with the application of the H3 receptor agonist RαMH (Sigma).
CHO(dhfr^+)-cre-luc cells stably expressing human H3 receptor were routinely grown as monolayers in Minimal Essential Medium α (MEMα) (Invitrogen) supplemented with 10% dialysed FBS (Hyclone), in 5% CO2 at 37° C. 48 hours prior to assay, cells were seeded in clear-base white walled 384-well plates (Corning) at a density of 5000 cells/well. On the day of assay, growth media was removed and replaced with […] of assay buffer (MEMα, 5 mg/ml fatty acid free BSA (Sigma)) per well. Cells were then incubated for 30 minutes at 37° C., 5% CO2. Compound was serially diluted in DMSO before being diluted 1:10 with assay buffer. 2.5 of compound diluted in assay buffer was added and cells incubated for 5 minutes at 37° C., 5% CO2. […] The level of light output to determine the level of luciferase expression was then measured. […]

Row | IC50 [1] | IC50 [2] | SMILES
1 | 12 nM | – | N#Cc1ccccc1CNC(=O)c1ccc2c(c1)CCN(C1CCC1)CC2
2 | 9 nM | 4 nM | Cc1cc(CNC(=O)c2ccc3c(c2)CCN(C2CCC2)CC3)nn1C
